The text below walks through data of publication doi:10.1101/2023.10.01.560353v1 (bioRxiv, 2023).

Values after ≈ are worked out from the molar mass of the structure shown.

The first test has as its system A. baumannii ATCC 19606. As to the kind of experiment: MIC, broth microdilution. The class given is cell-based, Acinetobacter baumannii. To be noted: broth microdilution in LB, 20 h at 37 °C, OD600; mean of three replicates. A general note: Dilution methods test growth across graded concentrations, often in twofold steps.
Regarding `CC[C@H](C)[C@H](NC(=O)[C@H](CC(N)=O)NC(=O)[C@H](CCCCN)NC(=O)[C@H](CCCNC(=N)N)NC(=O)[C@H](Cc1ccccc1)NC(=O)[C@@H](NC(=O)[C@H](CC(C)C)NC(=O)[C@H](CCCNC(=N)N)NC(=O)[C@H](CCCNC(=N)N)NC(=O)CNC(=O)[C@H](CCCNC(=N)N)NC(=O)[C@H](C)NC(=O)[C@H](CCCNC(=N)N)NC(=O)[C@@H](NC(=O)[C@H](CC(C)C)NC(=O)[C@H](CO)NC(=O)[C@H](Cc1ccc(O)cc1)NC(=O)[C@@H](NC(=O)[C@H](CCCNC(=N)N)NC(=O)[C@H](CS)NC(=O)[C@H](Cc1ccc(O)cc1)NC(=O)[C@@H](N)CC(C)C)[C@@H](C)CC)C(C)C)[C@@H](C)O)C(=O)N[C@@H](CO)C(=O)N[C@@H](CCCCN)C(=O)O` [Hydrodamin-1], the “Minimal Inhibitory Concentration: A. baumannii ATCC19606” value is 4 µmol/L.

The next test relates to 11 clinically relevant bacterial pathogens. The experiment in a line: MIC over the panel of pathogens. In kind it is cell-based. To be noted: Table S17; lowest MIC over the strains tested.
`CC[C@H](C)[C@H](NC(=O)CNC(=O)[C@@H](NC(=O)[C@@H]1CCCN1C(=O)[C@@H](NC(=O)[C@@H](NC(=O)[C@@H](NC(=O)[C@@H](NC(=O)[C@H](CCCCN)NC(=O)[C@H](CCCCN)NC(=O)[C@H](CCCCN)NC(=O)[C@H](CCCCN)NC(=O)[C@H](CC(C)C)NC(=O)CNC(=O)[C@H](CCC(N)=O)NC(=O)[C@@H](NC(=O)[C@H](Cc1ccc(O)cc1)NC(=O)[C@H](CCCNC(=N)N)NC(=O)[C@@H](NC(=O)[C@H](CC(C)C)NC(=O)[C@H](CC(N)=O)NC(=O)[C@@H](N)CCCNC(=N)N)C(C)C)C(C)C)C(C)C)[C@@H](C)CC)C(C)C)[C@@H](C)CC)C(C)C)C(=O)NCC(=O)N1CCC[C@H]1C(=O)N[C@@H](Cc1c[nH]cn1)C(=O)N[C@@H](C)C(=O)N[C@@H](CC(N)=O)C(=O)N[C@H](C(=O)N[C@@H](CCCCN)C(=O)O)[C@@H](C)CC` [Hydrodamin-3]: the “MIC (lowest MIC value obtained in the antimicrobial activity assays)” value was 16000 mM (≈ 51800 mg/mL).
The same measure, in the same setting: with `CC[C@H](C)[C@H](NC(=O)[C@H](CC(N)=O)NC(=O)[C@H](CCCCN)NC(=O)[C@H](CCCNC(=N)N)NC(=O)[C@H](Cc1ccccc1)NC(=O)[C@@H](NC(=O)[C@H](CC(C)C)NC(=O)[C@H](CCCNC(=N)N)NC(=O)[C@H](CCCNC(=N)N)NC(=O)CNC(=O)[C@H](CCCNC(=N)N)NC(=O)[C@H](C)NC(=O)[C@H](CCCNC(=N)N)NC(=O)[C@@H](NC(=O)[C@H](CC(C)C)NC(=O)[C@H](CO)NC(=O)[C@H](Cc1ccc(O)cc1)NC(=O)[C@@H](NC(=O)[C@H](CCCNC(=N)N)NC(=O)[C@H](CS)NC(=O)[C@H](Cc1ccc(O)cc1)NC(=O)[C@@H](N)CC(C)C)[C@@H](C)CC)C(C)C)[C@@H](C)O)C(=O)N[C@@H](CO)C(=O)N[C@@H](CCCCN)C(=O)O` [Hydrodamin-1] the figure was 4000 mM (≈ 11900 mg/mL); with `CC[C@H](C)[C@H](N)C(=O)N[C@@H](Cc1ccccc1)C(=O)N[C@@H](CO)C(=O)N[C@@H](CC(C)C)C(=O)N[C@@H](Cc1c[nH]cn1)C(=O)N[C@@H](CC(C)C)C(=O)N[C@@H](C)C(=O)NCC(=O)N[C@H](C(=O)N[C@@H](CO)C(=O)N[C@@H](CO)C(=O)N[C@H](C(=O)N[C@@H](CC(C)C)C(=O)O)[C@@H](C)CC)[C@@H](C)CC` [Ursusin-1], 64000 mM (≈ 87700 mg/mL); with `CC(C)C[C@H](NC(=O)CNC(=O)[C@H](CCCNC(=N)N)NC(=O)[C@H](CCCCN)NC(=O)[C@@H](N)CCCNC(=N)N)C(=O)N[C@@H](CCCCN)C(=O)N[C@@H](CC(C)C)C(=O)N[C@@H](C)C(=O)N[C@H](C(=O)N[C@@H](C)C(=O)N[C@@H](CC(C)C)C(=O)N[C@@H](CO)C(=O)N[C@@H](CC(C)C)C(=O)N[C@@H](CC(N)=O)C(=O)N[C@@H](CC(N)=O)C(=O)N[C@@H](CCCCN)C(=O)N[C@@H](Cc1ccccc1)C(=O)N[C@H](C(=O)O)C(C)C)[C@@H](C)O` [Mylodonin-4], 32000 mM (≈ 64900 mg/mL).
As for `CC[C@H](C)[C@H](NC(=O)[C@@H](NC(=O)[C@H](CCCCN)NC(=O)[C@H](CCCCN)NC(=O)[C@H](CCCCN)NC(=O)[C@H](CCCCN)NC(=O)[C@H](CC(C)C)NC(=O)CNC(=O)[C@H](CCC(N)=O)NC(=O)[C@@H](NC(=O)[C@H](Cc1ccc(O)cc1)NC(=O)[C@H](CCCNC(=N)N)NC(=O)[C@@H](NC(=O)[C@H](CC(C)C)NC(=O)[C@H](CC(N)=O)NC(=O)[C@H](CCCNC(=N)N)NC(=O)[C@H](C)NC(=O)[C@H](CCSC)NC(=O)[C@@H](N)CCCNC(=N)N)C(C)C)C(C)C)C(C)C)C(=O)O` [Hydrodamin-2], the “MIC (lowest MIC value obtained in the antimicrobial activity assays)” value turned out to be 8000 mM (≈ 18400 mg/mL).
